# Screening data from PubChem BioAssay.
# Compounds with a hit are over-represented: about 2.3% of the library has one in this group of screens.
# Nrf2 activator: activates Nrf2 signaling; AREc32 ARE-luciferase reporter (MCF7-derived line), luminescence, 24 h; hit rate 0.31% among 410,000; Potency, µM (doses to about 46.1 µM), inactives show at the highest dose activation, hits mostly activators; note: potency is the fitted concentration of half-maximal effect; % of control where 0% means no effect; nearly all actives have a fitted effect of over 65% in size
#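 Quantitative high-throughput format: AREc32 reporter cells, 1000 per well, received compound by pin transfer and were incubated 24 hr at 37 deg C, 5% CO2, before Steady-Glo luminescence detection.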
# Mito fusion act: blocks mitochondrial division or promotes mitochondrial fusion. S. cerevisiae fusion-defective mutant growth rescue, CellTiterGlo 48 h. Potency, µM (top dose mostly 46.1 µM), for the others: top-dose growth rescue (activation), most hits filed as activators. hit rate 0.23% among 320,000. AID 485298; note: potency is the fitted concentration of half-maximal effect; % of control where 0% means no effect; nearly all actives have a fitted effect of over 45% in size
#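 Compounds are tested for their ability to restore growth of mitochondrial fusion-defective yeast strains at non-permissive 37C in YPEG medium over 48 hours. Viability is quantified by luciferase luminescence.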
# Nrf2 inh: Nrf2 pathway inhibition; AID 504444; hit rate 2.1% among 360,000; Potency, µM (titrated, usually from 46 µM), for the others: at the highest dose activity change, negative = inhibition, usual class: inhibitors; A549 ARE-Fluc reporter, luciferase luminescence, 18-24 h; note: potency is the fitted concentration of half-maximal effect; % is set by controls: 0 for no effect and ±100 for the full control effect; nearly all actives have a fitted effect of over 60% in size
#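 A549 ARE_Fluc cells, 5000/well, 5% FBS OPTI-MEM; compounds in dose-response, 18-24 h at 37 °C/5% CO2; CellTiter-Fluor viability read (Ex 405/Em 525), then BugLite luciferase luminescence = Nrf2 activity.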
# miR-21 FLuc: raises the signal of a miR-21 reporter | AID 2288 | 340,000 tested, under 10 active | Potency, µM (series often up to 38.3 µM), without a hit: at the highest dose reporter change, positive = more light | HeLa miR-21 FLuc reporter, luciferase, 48 h; active = well fitted rising curve with a large enough effect; inconclusive = small, poorly fitted or top-dose-only effect; inactive = no such curve, though single readings can be large or run the other way;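 further: % of control where 0% means no effect; miR-21 action dims this reporter so a rising signal means less miR-21 action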
#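 HeLa miR-21-FLuc reporter line, endogenous miR-21; 2000 cells/well in DMEM/10% FBS; compound titration up to ~40uM final, 48 h, 37 degree Celsius; luciferase detection reagent, 15 min lysis, CCD luminescence.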
# A549 viability: counter-screen for Nrf2 inhibitors: cytotoxicity in A549 cells; A549 ARE-Fluc cells, CellTiter-Fluor viability, 18-24 h; Potency, µM (titrated, usually from 46 µM), without a hit: at the top dose activity change, negative = cytotoxicity, usual class: inhibitors; hit rate 0.16% among 390,000; AID 504648; note: potency is the fitted concentration of half-maximal effect; % is set by controls: 0 for no effect and ±100 for the full control effect
#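 A549 ARE_Fluc cells in 5% FBS OPTI-MEM were exposed to compounds in concentration-response for 18-24 h at 37 deg C. Viability was read by CellTiter-Fluor fluorescence (Ex 405/Em 525) after 30 min, before the luciferase read.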
# Starred values were filed as active, the others as inactive; ? = inconclusive; . = no result; ! = a repeat was not active. Unless noted, calls come from the whole dose curve; as a rule, active = well fitted curve in the direction sought with a large enough effect; inconclusive = small, poorly fitted or top-dose-only effect, or another doubt; inactive = no such curve, though single readings can be large; an effect the other way counts as inactive or inconclusive.
# Preview (two entries):
(1) O=C(N/N=C/c1cc(Br)c(Br)s1)c1ccncc1
(2) CCOP(=O)(OCC)/C(C#N)=C/c1ccc(-c2ccc(F)cc2F)o1

assay / compound	1	2
Mito fusion act	1.2%	?
Nrf2 inh	18.4µM*	-28.8%
miR-21 FLuc	27.1%	-10.1%
A549 viability	-10.5%	-12.4%
Nrf2 activator	-0.1%	-0.5%

# All compounds of this part, repeating the preview:
(1) O=C(N/N=C/c1cc(Br)c(Br)s1)c1ccncc1
(2) CCOP(=O)(OCC)/C(C#N)=C/c1ccc(-c2ccc(F)cc2F)o1
(3) COC(=O)C1=C(C(=O)OC)C2OC1c1cc3ccccc3cc12
(4) Cc1cc(=O)n(-c2ccccc2)n1C
(5) CCOc1cccc(=NC2CCCCC2)c2c(C)n(C)c(C)c12
(6) CCOc1ccccc1N=C1SCCCN1C

assay / compound	1	2	3	4	5	6
Mito fusion act	1.2%	?	.	.	0.3%	-3.1%
Nrf2 inh	18.4µM*	-28.8%	20.6µM*	?	16.4µM*	7.2%
miR-21 FLuc	27.1%	-10.1%	.	.	?	0.0%
A549 viability	-10.5%	-12.4%	-14.5%	-2.7%	?	3.6%
Nrf2 activator	-0.1%	-0.5%	-3.5%	0.3%	7.2%	-0.3%

(7) O=C(CNC(=O)OCc1ccccc1)Nc1ccc(Br)cc1C(=O)c1ccccc1Cl
(8) CN(C(=O)CNC(=O)OCc1ccccc1)c1ccc(Br)cc1C(=O)c1ccccc1Cl
(9) CCC(=O)Nc1ccc(C(=O)NNC(=O)c2cc([N+](=O)[O-])cc([N+](=O)[O-])c2)cc1
(10) CC(C)Nc1ccc(Nc2ccccc2)cc1
(11) CC(c1ccccc1)[n+]1ccccc1 (stereo not given)
(12) O=C(c1ccc(Cl)cc1)c1cn(Cc2ccccc2)c2cc3c(cc2c1=O)OCCO3

assay / compound	7	8	9	10	11	12
Mito fusion act	0.1%	12.6µM*	3.1%	9.1%	-6.2%	.
Nrf2 inh	-7.7%	?	?	-22.9%	18.4µM*	?
miR-21 FLuc	3.7%	18.8%	0.3%	.	.	-5.8%
A549 viability	-1.0%	-25.3%	1.4%	0.0%	-3.3%	-26.8%
Nrf2 activator	4.6%	4.9%	0.3%	3.3%	-0.7%	-0.5%

(13) COc1cc2c(cc1O)CC[C@@H]1[C@@H]2CC[C@]2(C)[C@@H](O)CC[C@@H]12
(14) O=[N+]([O-])c1ccc(N2CCCC2)cc1N/N=C1\CN2CCC1CC2
(15) O=[N+]([O-])c1ccc(N2CCNCC2)cc1NC1CC1
(16) Cc1ccc2oc(-c3ccc(Cl)cc3)c(O)c(=O)c2c1
(17) COc1ccc(C(=O)Nc2ccc(-c3nc4ccccc4s3)c(Cl)c2)cc1Cl
(18) O=C1NC2C(=CC(O)C(O)C2O)c2cc3c(cc21)OCO3 (stereo not given)

assay / compound	13	14	15	16	17	18
Mito fusion act	20.6µM*!	-17.0%	-4.3%	.	.	.
Nrf2 inh	9.2µM*	-22.9%	.	2.1%	17.5%	2.06µM*
miR-21 FLuc	13.7%	-16.8%	-17.0%	-40.0%	-32.6%	.
A549 viability	-11.8%	9.2µM*	.	-7.2%	0.5%	?
Nrf2 activator	-0.4%	2.0%	.	3.9%	0.1%	-1.9%

(19) CCOC(=O)c1ccc(N2C(=O)c3n[nH]c(-c4cccs4)c3C2c2ccc(OC)cc2OC)cc1 (stereo not given)
(20) COc1ccc(C2=NCC(=O)N(CC(=O)NCc3ccco3)c3sc4c(c32)CCCC4)cc1
(21) O=C(Nc1ccc(Br)cc1C(=O)c1ccccc1)c1ccccc1
(22) O=C(CNC(=O)c1ccc(Br)cc1)Nc1ccc(Br)cc1C(=O)c1ccccc1
(23) CCCNC(=O)N1[C@H]2CC[C@@H]1C(C(=O)OC)=C(c1ccc(-c3ccccc3)c(F)c1)C2
(24) COC(=O)C1=C(c2ccc(-c3ccccc3)c(F)c2)C[C@@H]2CC[C@H]1N2C(=O)NCCOc1ccccc1Cl

assay / compound	19	20	21	22	23	24
Mito fusion act	.	2.8%	.	17.8µM*	?	?
Nrf2 inh	?	20.6µM*	17.3%	-15.5%	16.4µM*	16.4µM*
miR-21 FLuc	?	-3.3%	-9.2%	-8.3%	.	.
A549 viability	-20.5%	?	11.1%	-2.1%	0.3%	-19.6%
Nrf2 activator	-1.4%	5.9%	4.1%	0.3%	3.7%	0.2%

(25) COC(=O)C1=C(c2ccc(-c3ccccc3)c(F)c2)C[C@@H]2CC[C@H]1N2C(=O)NCc1ccco1
(26) N[C@@H](Cn1ccc(=O)c(O)c1)C(=O)O
(27) COc1ccc(C(=O)Nc2nnc(S(=O)(=O)N(CC(C)C)c3ccc(C)cc3)s2)cc1OC
(28) CCCC1=Nc2cc(C(=O)NCCc3ccc(OC)cc3OC)ccc2Sc2ccccc21
(29) C[C@H]1CC[C@@H]2[C@@H](C)[C@H]3C(C[C@H]4C5CC[C@H]6C[C@@H](O)CC[C@]6(C)C5CC[C@]34C)N2C1 (stereo not given in full)
(30) CCCCn1c(NC(=O)c2ccc(Br)o2)c(C(=O)OCC)c2nc3ccccc3nc21

assay / compound	25	26	27	28	29	30
Mito fusion act	?	-12.8%	.	.	.	8.91µM*
Nrf2 inh	14.6µM*	.	113.1%	18.4µM*	18.2%	?
miR-21 FLuc	.	.	-57.6%	?	.	8.2%
A549 viability	-18.7%	.	13.1%	7.4%	1.5%	3.6%
Nrf2 activator	0.3%	.	0.8%	0.3%	.	0.7%
